{
  "source": "patent US9522128B2",
  "about": "(FUNDACION PARA LA INVESTIGACION BIOMEDICA DEL HOSPITAL …, priority 2008, dated 2016)",
  "key": {"rabbits [1]": {"system": "rabbits", "details": "high doses of imipenem, without or with concomitant cilastatin; Norrby 1985; cited from earlier work"}, "rabbits [2]": {"system": "rabbits", "details": "cilastatin alone; Toyoguchi 1997; cited from earlier work"}, "Wistar rats": {"system": "Wistar rats", "experiment": "Extended in vivo study of cilastatin nephroprotection against acute toxic renal failure caused by cisplatin", "text": "A total of 28 animals were used, which were randomized into 4 groups with a sample size n=6-8 animals per group.\nThroughout the period, animals were given free access to both water and feed (standard diet) in a controlled light, temperature, and humidity environment. One day before killing, animals were introduced into metabolic cages with free access to feed and water ad libitum to collect 24-hour urine, in order to quantify urine output and protein concentration.\nAt the time of killing, animals (previously weighed) were anesthetized in the experimental operating room with ketamine (10 mg/kg) and diazepam (4 mg/kg) and were drawn blood by cannulation of the abdominal aorta at the bifurcation level. Blood was first incubated for 30 minutes at 37° C., and then for one hour at 4° C. Subsequent centrifugation at 2000 rpm for 15 minutes at 4° C. allowed for obtaining blood serum, which was frozen at −80° C. until use. […] Kidneys were subsequently removed, decapsulated, and kept in cold saline during their handling to minimize tissue degradation. Kidneys (right and left) were weighed and were subsequently handled similarly. […]\nHemodynamic variables and serum and urine kidney function parameters (FIG. 14) were measured using a Dimension RxL autoanalyzer from Dade-Behring according to manufacturer instructions. […]"}, "[3]": {"system": "renal degradation of imipenem", "details": "healthy subjects; cited from earlier work"}, "[4]": {"details": "all species (rabbit, rat, pig cells, human SPC data)", "text": "No data have been reported for humans. […] The resulting plot is shown in FIG. 14 (diamonds: rabbit data; triangles: rat data; blank squares: data from pig experiments; filled squares including a white point: data from the summary of product characteristics for humans)."}},
  "data": [
    {"smiles": "CC1(C)C[C@@H]1C(=O)N/C(=C\\CCCCSC[C@H](N)C(=O)O)C(=O)[O-].[Na+]", "note": "(relative stereo) [cilastatin, monosodium salt of [R—[R*,S*—(Z)]]-7-[(2-amino-2-carboxyethyl)thio]-2-[[(2,2-dimetylcyclopropyl)carbonyl]amino]-2-heptenoic acid]", "values": [
      {"measurement": "tubular toxicity", "setting": "rabbits [1]", "value": "this effect is prevented"},
      {"measurement": "renal excretion of vancomycin", "setting": "rabbits [2]", "value": "accelerated renal excretion of vancomycin"},
      {"measurement": "Δ WEIGHT", "setting": "Wistar rats; body weight balance at the end of the extended study, mean ± standard error", "value": "14.3 ± 1.5"},
      {"measurement": "weight loss", "setting": "Wistar rats; in words, cisplatin 5 mg/kg with or without cilastatin", "value": "clearly lower weight loss"},
      {"measurement": "accumulation in multiple dose studies", "setting": "[3]", "value": "does not accumulate"},
      {"measurement": "administered dose up to which the dose/plasma level relationship is linear", "setting": "[4]", "value": "≤ 200", "unit": "mg/kg body weight"}
    ]}
  ]
}
